This is an account of results in US4072760A, “Bronchospasmolytic phenylethanolamines” (Pharmacia AS, priority 1974, dated 1978).

The subject of series [1] is β2 -stimulation versus β1 -stimulation. The series is described as follows: Bronchial selectivity: heart rate increasing dose ("ED 100") divided by bronchospasmolytic dose (ED 50). The series is classed as in vivo. The settings on record: heart rate ED 100 (mice, i.v.) / bronchospasmolytic ED 50 (guinea pig, i.v.). As for the experimental part:
The ratio, heart rate increasing dose ("ED 100") divided by bronchospasmolytic dose (ED 50), is a measure of the degree of selectivity of the bronchospasmolytic action. This ratio was calculated for a number of the compounds of the invention and for some of the most relevant compounds of reference.

The nature of series [2]: in vivo. The settings on record: mouse.

The LD50 is the dose at which mortality reaches 50%. A low value points to greater toxicity. On to `CC(C)NCC(O)c1ccc(O)c(O)c1` (stereo not drawn) [Isoprenaline, reference compound], for which the “Ratio "ED 100"/ED 50” value in series [1] came to 0.06. Also, the values for the LD50 in series [2] (iv) and in series [2] (po) were 70 mg/kg and above 2000 mg/kg, respectively.
